Target: T1, CCK-B receptors (CHO-CCK) (Homo sapiens, UniProt P32239)
T1 construct: expressed in transfected cells; host or cells: CHO (CHO-CCK model cells)
T1 sequence (P32239 1-447): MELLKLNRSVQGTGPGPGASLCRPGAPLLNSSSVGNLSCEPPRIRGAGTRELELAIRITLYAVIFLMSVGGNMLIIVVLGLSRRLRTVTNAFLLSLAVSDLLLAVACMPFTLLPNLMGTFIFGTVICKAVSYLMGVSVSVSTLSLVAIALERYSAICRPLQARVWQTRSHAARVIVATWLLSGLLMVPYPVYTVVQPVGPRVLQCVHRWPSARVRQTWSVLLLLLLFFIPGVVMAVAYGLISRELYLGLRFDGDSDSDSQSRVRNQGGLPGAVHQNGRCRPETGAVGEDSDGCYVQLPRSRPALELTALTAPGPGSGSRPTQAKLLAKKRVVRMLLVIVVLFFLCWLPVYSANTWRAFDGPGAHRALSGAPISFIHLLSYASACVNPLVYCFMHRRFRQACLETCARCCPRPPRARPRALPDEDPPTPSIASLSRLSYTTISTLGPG
Assay: Calcium flux (Fluo-8) agonist test on CHO-CCK model cells
Format: cell-based
Experimental: • To detect changes in intracellular calcium ion concentration after the compound acts on model cells containing CCK-B receptors (CHO-CCK).
• 1. The compound was formulated to a 10 mM mother liquor with DMSO, and then diluted into a series of 9 concentrations with a 3-fold gradient to form a 1000× stock solution.
2.1 Agonist • The compound stock solution was subjected to 200-fold dilution with HHBS buffer to form a 5× working solution.
• 1. Plate CHO-CCK cells in a 96-well plate with media containing 1% FBS, 30,000 cells/well/100 μL, and incubate overnight at 37° C. • 2. Prepare 1×Fluo-8 analysis buffer: mix 9 mL of HHBS, 1 mL of 10× Pluronic F127 Plus and 20 μL of Fluo-8 thoroughly for later use. • 3. Add Fluo-8 dye working solution to the cell plate, 100 μL/well. First incubate in a 37° C. incubator for 30 min, and then take it out and incubate at room temperature in the dark for 30 min. • 4. In the process of incubating cells, the compounds to be detected were prepared with HHBS. • 5.
The agonism/antagonism EC50 of the compound can be obtained by plotting the fitting curve with the agonism/antagonism percentage as Y-axis and the concentration of the compound as X-axis.

Question: With CSCC[C@H](NC(=O)[C@@H](N)Cc1c[nH]c2ccccc12)C(=O)N[C@@H](CC(=O)O)C(=O)N[C@@H](Cc1ccccc1)C(N)=O [HT-9, Trp-Met-Asp-Phe-NH2] as the compound, how does the “% Act-Ave @ 1 nM” value (compound at 1 nM) read?
Answer: 68.19%

Question: What about the “% Act-Ave @ 50 nM” value (compound at 50 nM) of the same compound?
Answer: 94.51%
